Source: PubChem BioAssay AID2716 (Broad Institute, 2010)
Only a part is listed here, and it is no random draw. Some salts and complexes are drawn in separate pieces, as the source files them; their charges need not balance. The source made the active and inactive calls.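 The calls were made as follows: active = every valid replicate shows activation above 250% relative to neutral control wells; inactive = the rest, any valid replicate at or below 250%.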

Assay: yeast Mot1-301 growth rescue at high temperature, primary screen, SUMOylation pathway inhibitor project, S. cerevisiae, ATP luminescence, 38.5C (AID 2716);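 also: OY570 slx delta 5 strain wells were the positive control but not used for scaling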
Conditions: S. cerevisiae Mot1-301 growth rescue, at 18.8 µM, active compounds read high, percent above DMSO median, 100 means doubled

Row | Structure (SMILES) | growth rescue
1 | O=[N+]([O-])c1cc([N+](=O)[O-])c(OC2CCCCC2O)c([N+](=O)[O-])c1 (configuration not stated) | inactive: -4.35%
2 | CCCCCOc1ccc(NP(C)(=O)Oc2ccc(Cl)cc2Cl)cc1 (configuration not stated) | inactive: -9.3%
3 | CP(=O)(Nc1ccccc1)Oc1ccc(F)cc1 (configuration not stated) | inactive: 45.8%
4 | CCN(CC)CCCOC(=O)C(O)(c1ccccc1)C1CCCCC1 (configuration not stated) | inactive: -6.94%
5 | COc1ccc(OP(C)(=O)Nc2ccc(SC(F)(F)F)cc2)cc1 (configuration not stated) | inactive: 5.72%
6 | CCOC(=O)c1ccc(NP(C)(=O)Oc2ccc(F)cc2)cc1 (configuration not stated) | inactive: -1.14%
7 | COc1ccc2c(c1O)-c1c(O)c(OC)cc3c1[C@H](C2)[N+](C)(C)CC3.O=[N+]([O-])c1cc([N+](=O)[O-])c([O-])c([N+](=O)[O-])c1[O-] | inactive: -0.016%
8 | O=C(OCCN1CCN(CCOCc2ccccc2)CC1)C(O)(c1ccccc1)c1ccccc1 | inactive: -22.4%
9 | O=C(OC1CN2CCC1CC2)c1ccc([N+](=O)[O-])cc1 (configuration not stated) | inactive: -0.686%
10 | CC(C)c1ccc(OP(C)(=O)Nc2ccc(SC(F)(F)F)cc2)cc1 (configuration not stated) | inactive: -14%
11 | CP(=O)(Nc1ccccc1F)Oc1ccccc1 (configuration not stated) | inactive: -8.27%
12 | Cc1ccccc1NP(C)(=O)Nc1ccccc1C | inactive: -0.216%
13 | CP(=O)(Nc1ccc2c(c1)OCCO2)Oc1ccccc1 (configuration not stated) | inactive: -6.67%
14 | CCOP(C)(=S)SCC(=O)NC(C)(CC)C(=O)O (configuration not stated) | inactive: 5.82%
15 | CP(=O)(Nc1ccc(SC(F)(F)F)cc1)Oc1ccc(F)cc1 (configuration not stated) | inactive: 86.5%
16 | O=[N+]([O-])c1cc([N+](=O)[O-])c(NCC2CCS(=O)(=O)C2)c([N+](=O)[O-])c1 (configuration not stated) | inactive: -7.29%
17 | O=[N+]([O-])c1ccc(OP2(=O)COCCO2)cc1 (configuration not stated) | inactive: -1.31%
18 | COc1ccc(NP(C)(=O)Oc2ccccc2OC)cc1 (configuration not stated) | inactive: 169%
19 | CN(C)CCOC(=O)C(O)(c1ccccc1)C1CCCCC1 (configuration not stated) | inactive: -11.5%
20 | COc1ccc(OP(C)(=O)Nc2cccc(Br)c2)cc1 (configuration not stated) | inactive: -22.2%
21 | CP(=O)(OC12CC3CC(CC(C3)C1)C2)OC12CC3CC(CC(C3)C1)C2 | inactive: 61%
22 | CCOC(=O)c1ccc(NP(C)(=O)Oc2ccc(Cl)cc2)cc1 (configuration not stated) | inactive: 10.1%

Row | Structure (SMILES) | growth rescue
23 | Nc1ccc2c(ccc3cccnc32)n1.O=[N+]([O-])c1cc([N+](=O)[O-])c(O)c([N+](=O)[O-])c1 | inactive: -11.4%
24 | CN(C)C(=O)c1c([N+](=O)[O-])cc([N+](=O)[O-])cc1[N+](=O)[O-] | inactive: -14.1%
25 | CP(=O)(Nc1ccc(Cl)cc1)Oc1ccc(F)cc1 (configuration not stated) | inactive: -1.29%
26 | CC(C)(C)c1ccc(OP(C)(=O)O)cc1 | inactive: 1.56%
27 | COc1ccccc1OP(C)(=O)Nc1ccccc1Br (configuration not stated) | inactive: -21.3%
28 | CCc1ccc(OP(C)(=O)Nc2cccnc2)cc1 (configuration not stated) | inactive: 23.4%
29 | CP(=O)(Oc1ccccc1)N1CCOC1=O (configuration not stated) | inactive: 28.2%
30 | O=C(OCCCN1CCCC1)C(O)(c1ccccc1)C1CCCCC1 (configuration not stated) | inactive: 23.1%
31 | COc1ccccc1OP(C)(=O)Nc1c(C)n(C)n(-c2ccccc2)c1=O (configuration not stated) | inactive: -1.71%
32 | COc1ccc(OP(C)(=O)Nc2ccc(Br)cc2)cc1 (configuration not stated) | inactive: -1.82%
33 | CCN(CC)CC(O)COC(=O)C(O)(c1ccccc1)C1CCCCC1 (configuration not stated) | inactive: 7.84%
34 | CCc1ccc(OP(C)(=O)O)cc1 | inactive: -0.825%
35 | COc1ccccc1OP(C)(=O)Nc1ccc(C)cc1C (configuration not stated) | inactive: 33.7%
36 | CP(=O)(Nc1ccccn1)Oc1ccccc1 (configuration not stated) | inactive: 14.1%
37 | O=[N+]([O-])c1cc([N+](=O)[O-])c(Nc2ccccn2)c([N+](=O)[O-])c1 | inactive: -24.9%
38 | Cc1c(NP(C)(=O)Oc2ccc(C(C)C)cc2)c(=O)n(-c2ccccc2)n1C (configuration not stated) | inactive: -6.48%
39 | CN(C)CCOC(=O)C(O)(c1ccccc1)C1CCCC1 (configuration not stated) | inactive: 1.72%
40 | COc1ccc(OP(C)(=O)Nc2ccccn2)cc1 (configuration not stated) | inactive: -5.25%
41 | COc1ccccc1OP(C)(=O)Nc1ccc(Br)cc1 (configuration not stated) | inactive: -10.7%
42 | CP(=O)(OCCOc1ccccc1)OCCOc1ccccc1 | inactive: 21.1%
43 | Cc1nc2ccc3ccccc3c2o1.O=[N+]([O-])c1cc([N+](=O)[O-])c(O)c([N+](=O)[O-])c1 | inactive: 58.7%
44 | COc1ccc(OP(C)(=O)Nc2ccccc2Br)cc1 (configuration not stated) | inactive: 242%

Row | Structure (SMILES) | growth rescue
45 | COc1ccccc1OP(C)(=O)Nc1ccc(C)c(C)c1 (configuration not stated) | active: 330%
46 | Cc1cc(C)cc(OP(C)(=O)Nc2cccc(C(F)(F)F)c2)c1 (configuration not stated) | inactive: -6.7%
47 | COc1ccccc1OP(C)(=O)Nc1cc(Cl)ccc1C (configuration not stated) | inactive: 5.5%
48 | Cc1cc(C)cc(OP(C)(N)=O)c1 (configuration not stated) | inactive: 274%
49 | CCOC(=O)c1ccc(NP(C)(=O)Oc2ccccc2)cc1 (configuration not stated) | inactive: 4.08%
50 | Cc1ccc(NP(C)(=O)Oc2ccccc2)c(C)c1 (configuration not stated) | inactive: -11.1%
51 | COc1ccccc1OP(C)(=O)Nc1ccc(C)cc1 (configuration not stated) | inactive: -4.36%
52 | Cc1cccc(C)c1OP(C)(N)=O (configuration not stated) | inactive: -12.8%
53 | CC(C)(C)c1ccc(OP(C)(=O)Nc2ccc(SC(F)(F)F)cc2)cc1 (configuration not stated) | inactive: 1.55%
54 | O=[N+]([O-])c1ccc2c(c1)C=Nc1ccccc1O2 | inactive: -36.6%
55 | O=[N+]([O-])c1cc([N+](=O)[O-])c(Nc2cccnc2)c([N+](=O)[O-])c1 | inactive: 89.7%
56 | CCN(CC)CCCOC(=O)C(O)(c1ccccc1)c1ccccc1 | inactive: -9.97%
57 | CP(=O)(Nc1ccccn1)Oc1ccc(Cl)cc1 (configuration not stated) | inactive: -30.8%
58 | CCOP(C)(=S)SCC(=O)NC(C)C(=O)O (configuration not stated) | inactive: -5.97%
59 | CCOC(=O)c1ccc(NP(C)(=O)Oc2ccc(OC)cc2)cc1 (configuration not stated) | inactive: 6.19%
60 | O=[N+]([O-])c1cc([N+](=O)[O-])c(O)c([N+](=O)[O-])c1.c1ccc(Oc2ccncc2)cc1 | inactive: 112%
61 | Cc1cc(C)cc(OP(C)(=O)Nc2ccc(SC(F)(F)F)cc2)c1 (configuration not stated) | inactive: 14.6%
62 | CCc1ccc(OP(C)(=O)N2CCN(c3ccc([N+](=O)[O-])cc3)CC2)cc1 (configuration not stated) | inactive: -4.25%
63 | CP(=O)(NC(=O)Nc1ccccc1)Oc1ccccc1 (configuration not stated) | inactive: 0.893%
64 | CP(=O)(Oc1ccccc1)OC(c1ccccc1)C(F)(F)F (configuration not stated) | inactive: -1.28%
65 | Cc1cccc(C)c1OP(C)(=O)Nc1ccc(SC(F)(F)F)cc1 (configuration not stated) | inactive: 10.3%
66 | CP(=O)(Nc1ccc(SC(F)(F)F)cc1)Oc1ccc(Cl)cc1 (configuration not stated) | inactive: 4.93%

Row | Structure (SMILES) | growth rescue
67 | COc1ccccc1OP(C)(=O)Nc1ccccc1 (configuration not stated) | inactive: -33.5%
68 | CP(=O)(Nc1ccccc1Br)Oc1ccccc1 (configuration not stated) | inactive: -3.57%
69 | CP(=S)(Nn1cnnc1)Oc1ccccc1 (configuration not stated) | inactive: 1.94%
70 | CP(=O)(Nc1ccc(SC(F)(F)F)cc1)Oc1ccccc1 (configuration not stated) | inactive: 7.61%
71 | CCCOc1ccc(NP(C)(=O)Oc2ccc(Cl)cc2)cc1 (configuration not stated) | inactive: 264%
72 | COc1ccccc1OP(C)(=O)Nc1c(C)cccc1C (configuration not stated) | inactive: 7.39%
73 | CN1CCCCC1COC(=O)C1(O)c2ccccc2CCc2ccccc21 (configuration not stated) | inactive: -13.3%
74 | CCOC(=O)C(CC)C1=NC(C)(C)Cc2ccccc21.O=[N+]([O-])c1cc([N+](=O)[O-])c(O)c([N+](=O)[O-])c1 (configuration not stated) | inactive: -4.04%
75 | O=[N+]([O-])c1cc([N+](=O)[O-])c(Nc2nnnn2CCO)c([N+](=O)[O-])c1 | inactive: 10.8%
76 | CC1=C2N=C(C=C3N=C(C(C)=C4[N-][C@@](C)([C@@H]5N=C1[C@](C)(CCC(=O)NC[C@@H](C)OP(=O)([O-])O[C@H]1[C@@H](O)[C@@H](n6cnc7cc(C)c(C)cc76)O[C@@H]1CO)[C@H]5CC(N)=O)[C@@](C)(CC(N)=O)[C@@H]4CCC(N)=O)[C@@](C)(CC(N)=O)[C@@H]3CCC(N)=O)C(C)(C)[C@@H]2CCC(N)=O.[C-]#N.[Co+3] | inactive: 17%
77 | Cc1nc2ccc3ccccc3c2s1.O=[N+]([O-])c1cc([N+](=O)[O-])c(O)c([N+](=O)[O-])c1 | inactive: -28.3%
78 | O=[N+]([O-])c1cc([N+](=O)[O-])c(-c2cnn(-c3ccccc3)c2)c([N+](=O)[O-])c1 | active: 469%
79 | O=[N+]([O-])c1cc([N+](=O)[O-])c(-n2nnc3ccccc32)c([N+](=O)[O-])c1 | inactive: 0.825%
80 | CP(=O)(Nc1cccc(Br)c1)Oc1ccccc1 (configuration not stated) | inactive: -7.02%
81 | Cc1cc(C)cc(OP(C)(=O)Nc2ccccn2)c1 (configuration not stated) | inactive: -15.6%
82 | Cc1ccc(C)c(NP(C)(=O)Oc2ccccc2)c1 (configuration not stated) | inactive: -15.8%
83 | Cc1cc(C)cc(OP(C)(=O)Nc2ccc(C)cc2C)c1 (configuration not stated) | inactive: -7.45%
84 | CCOC(=O)c1ccc(NP(C)(=O)Oc2cc(C)cc(C)c2)cc1 (configuration not stated) | inactive: 6.59%
85 | COc1ccccc1OP(C)(=O)Nc1cccc(Br)c1 (configuration not stated) | inactive: 187%
86 | CC1=NCCc2c1[nH]c1ccccc21.O=[N+]([O-])c1cc([N+](=O)[O-])c(O)c([N+](=O)[O-])c1 | inactive: -11.7%
87 | O=C(O)c1cccc(Nc2c([N+](=O)[O-])cc([N+](=O)[O-])cc2[N+](=O)[O-])c1 | inactive: -5.42%
